# The entries are a selection whose mix differs from that of the whole data set. Records with an inconclusive call do not appear. Active and inactive are the calls of the source. Calls come from the whole dose curve; as a rule, active = well fitted activation curve with a large enough effect; inconclusive = small, poorly fitted or top-dose-only effect, or another doubt; inactive = no such curve, though single readings can be large or run the other way.
# Experiment: Primary qHTS for Identification of Small Molecule Activators of Huntingtin-Antisense Promoter Activity; note: nearly all actives have a fitted effect of over 55% in size
# Settings: HEK293 HTT-AS promoter firefly luciferase reporter, 24 h, percent change from vehicle, -100% = no light; at 57.5 µM (top of the series) unless noted
# Description: Assay Provider: Russell L. Margolis M.D.
# Department Neurology, Johns Hopkins University School of Medicine, Baltimore, MD
# Huntington's Disease (HD) is a neurodegenerative disorder caused by a CAG repeat expansion in exon 1 of huntingtin (HTT). While there are currently no disease-modifying treatments for HD, recent efforts have focused on development of nucleotide-based therapeutics to lower HTT expression. As an alternative to siRNA or oligonucleotide methods, we hypothesized that suppression of HTT expression might be accomplished by small molecules that either (1) directly decrease HTT expression by suppressing HTT promoter activity or (2) indirectly decrease HTT expression by increasing the promoter activity of HTT-AS, the gene antisense to HTT that appears to inhibit expression of HTT.
# We developed and employed a high throughput screen for modifiers of HTT and HTT-AS promoter activity using luminescent reporter HEK293 cells; of the 52,041 compounds tested, we identified 898 replicable hits. We used a rigorous stepwise approach to assess compound toxicity and the capacity of the compounds to specifically lower huntingtin protein in 5 different cell lines, including HEK293 cells, HD lymphoblastoid cells, mouse primary neurons, HD iPSCs differentiated into cortical-like neurons, and HD hESCs. We found no compounds which were able to lower huntingtin without lowering cell viability in all assays, though the potential efficacy of a few compounds at non-toxic doses could not be excluded.
# SEQUENCE No. (1, 2, 3, etc.); […] (e.g., Cells, Incubation, Reagent, etc.); VALUE and DESCRIPTION.
# 1; Reagent; 4 uL; 2,500 Hek293 luciferase reporter cells per wells
# 3; Compound; 23 nL; Control inhibitor / compound library
# 5; Reagent; 2.5 uL; Firefly Luc reagent; Dual-Glo Luciferase Reporter Assay System (Promega)
# 6; Time; 10 min; room temperature incubation
# 7; Detection; Luminescence; FLuc
# NOTES (numbers refer to sequence above)
# 1; High-throughput screening, measuring luminescence from a Hek293 luciferase reporter, was performed in 1,536 well white-walled tissue-culture treated plates. 2,500 cells were plated in 4 µL of Opti-MEM per well using a Multidrop Combi Reagent Dispenser (ThermoFisher).
# 2; Assay plates were cultured for 24 hours.
# 3; Control inhibitor (PTC124; final concentration of 50 uM) and compound library (at final concentrations of 460 nM - 57.5 uM) were added to the assay plate using the Kalypsis Pintool Robotic System equipped with 1536 pinheads.
# 4; Cells were then incubated for 24 hours at 37 degrees C prior to luminescence measurements.
# 5; In all cases, luminescence was measured using the Dual-Glo Luciferase Reporter Assay System (Promega) following the manufacturer's instructions.
# 6; Room temperature incubation.
# 7; Luminescence signal was obtained using the PerkinElmer ViewLux plate reader. Results were normalized to vehicle control (0% activity) and zero RLU (-100% activity).
row,Compound,"activity change, positive = activation"
1,OCCSCCO,inactive: 3.87%
2,CC1=C2[N-][C@@](C)([C@@H]3N=C(C(C)=C4N=C(C=C5N=C1[C@@](C)(CC(N)=O)[C@H]5CCC(N)=O)C(C)(C)[C@H]4CCC(N)=O)[C@](C)(CCC(=O)NC[C@@H](C)OP(=O)([O-])O[C@H]1[C@@H](O)[C@@H](n4cnc5cc(C)c(C)cc54)O[C@H]1CO)[C@H]3CC(N)=O)[C@@](C)(CC(N)=O)[C@@H]2CCC(N)=O.[C-]#N.[Co+3],inactive: -9.15% [at 25.1 µM]
3,CCOP(=O)(CC)Oc1ccc([N+](=O)[O-])cc1 (stereo unspecified),inactive: -37.5%
4,Cc1cccc([N+](=O)[O-])c1[N+](=O)[O-],inactive: -11.2% [at 116 µM]
5,C/C1=C2N=C(/C=C3N=C(/C(C)=C4\[N-][C@@](C)([C@@H]5N=C1[C@](C)(CCC(=O)NC[C@@H](C)OP(=O)([O-])O[C@H]1[C@@H](O)[C@@H](n6cnc7cc(C)c(C)cc76)O[C@@H]1CO)[C@H]5CC(N)=O)[C@@](C)(CC(N)=O)[C@@H]4CCC(N)=O)[C@@](C)(CC(N)=O)[C@@H]\3CCC(N)=O)C(C)(C)[C@@H]/2CCC(N)=O.[C-]#N.[Co+3],inactive: -29.8%
6,O=[N+]([O-])c1cccc([N+](=O)[O-])c1,inactive: -13.7% [at 116 µM]

# Source: PubChem BioAssay AID1508624 (National Center for Advancing Translational Sciences (NCATS), 2021)
